Values of other authors, collected in publication PMC9786748, “Carvacrol and HP-β-Cyclodextrin Complexes: Extensive Characterization and Potential Cytotoxic Effect in Human Colorectal Carcinoma Cells” (Pharmaceutics, 2022).
Read-outs that look alike come from different tables or passages of the source.

How the values were obtained:
[1] = design: method as in PMID 25298799; settings: with HP-β-CDs; cited from earlier work
[2] = design: method as in PMID 25298799; settings: with RAMEB; cited from earlier work
[3] = design: method as in PMID 25298799; settings: with CRYSMEB; cited from earlier work

## isoeugenol
[1]
  CE (complexation efficiency): 1.82
[2]
  CE (complexation efficiency): 1.73
[3]
  CE (complexation efficiency): 1.26
